The text below walks through data of patent EP2397477B1, “Heterocyclic-substituted piperidine compounds and the uses thereof” (dated 2008).

The target in assay [1] is T1, µ-opioid receptor (Homo sapiens, UniProt P35372). Description: In vitro µ-opioid receptor binding assay ([3H]-diprenorphine dose-displacement). The settings on record: read-out: Ki [Average ± Std Deviation] (nM) Opioid Receptor µ; 0.2 nM [3H]-diprenorphine.
For assay [2], the target named is T2, human opioid receptor-like (ORL-1) (Homo sapiens, UniProt P41146). The assay can be described thus: In vitro ORL-1 receptor binding assay ([3H]-nociceptin displacement). Particulars: read-out: Ki [Average ± Std Deviation] (nM) ORL-1; membranes from recombinant HEK-293 cells; 0.1 nM [3H]-nociceptin.
Assay [3] addresses T2, human opioid receptor-like (ORL-1). Description: In vitro ORL-1 receptor functional assay ([35S]GTPγS binding). The settings on record: for EC50: read-out: GTP EC50 (nM) ORL-1, [35S]GTPγS, ORL-1 membranes; for GTP Emax (%) ORL-1: maximal effect relative to the effect elicited by nociceptin. On the technique in general: Binding of GTPγS marks nucleotide exchange on a G protein.

For a further assay, the target named is Kappa opioid receptor (Homo sapiens, UniProt P41145). The assay can be described thus: In vitro κ-opioid receptor functional assay ([35S]GTPγS binding). The settings on record: for EC50: read-out: GTP EC50 (nM) Opioid Receptor K, [35S]GTPγS, kappa membranes; for GTP Emax (%) Opioid Receptor κ: maximal effect relative to the effect elicited by U69,593.
Assay [4] addresses recombinant delta opioid receptor (Homo sapiens, UniProt P41143). The assay can be described thus: In vitro δ-opioid receptor binding assay ([3H]-Naltrindole dose-displacement). Particulars: read-out: Ki [Average ± Std Deviation] (nM) Opioid Receptor Δ; receptor expressed in CHO-K1 cells; 0.2 nM [3H]-Naltrindole.
Assay [5] concerns the target human kappa opioid receptor (kappa) (Homo sapiens, UniProt P41145). Description: In vitro κ-opioid receptor binding assay ([3H]-U69,593 dose displacement). The settings on record: read-out: Ki [Average ± Std Deviation] (nM) Opioid Receptor κ; membranes from recombinant HEK-293 cells; 0.4-0.8 nM [3H]-U69,593.
In assay [6] the target is T1, µ-opioid receptor. Description: In vitro µ-opioid receptor functional assay ([35S]GTPγS). The settings on record: for GTP Emax (%) Opioid Receptor µ: maximal effect relative to the effect elicited by DAMGO; for EC50: read-out: GTP EC50 (nM) Opioid Receptor µ, [35S]GTPγS, µ-receptor membranes.

One may read the Ki as a measure of affinity in units of concentration, obtained from inhibition or displacement. The EC50 is the concentration at which the effect is half-maximal.

Regarding `CCC1(CC)C(=O)Nc2ccccc2N(C2CCN(C3CCCCCCC3)CC2)C1=O`, the values for the Ki (on µ-opioid receptor [1]; in assay [2]) were 6200 nM and 620 nM, respectively. For the same compound, in assay [3], the EC50 stood at 1300 nM.
Regarding `CC(C)C1CCC(N2CCC(N3C(=O)CC(=O)Nc4ccccc43)CC2)CC1` (stereo not drawn), the inhibitory constant (Ki) was 2950 nM at µ-opioid receptor [1] and 610 nM in assay [2]. Also, in assay [3], the EC50 was 1400 nM.
For the compound `O=C1CC(=O)N(C2CCN(C3CCCCCCC3)CC2)c2ccccc2N1`, the figures for the concentration giving a half-maximal response (EC50) (on Kappa opioid receptor; in assay [3]) were 1290 nM and 166 nM, respectively. In addition, the Ki turned out to be 13700 nM at µ-opioid receptor [1], 16200 nM in assay [4], 35.5 nM in assay [2] and 355 nM in assay [5].
Turning to `O=c1[nH]c2ccc(N3CCOCC3)cc2n(C2CCN(C3CCCCCCC3)CC2)c1=O`, at Kappa opioid receptor, the “GTP Emax (%) Opioid Receptor κ” value was 25%. The 50% effective concentration (EC50) was determined as 14000 nM on Kappa opioid receptor and 7800 nM in assay [3]. The inhibition constant (Ki) amounted to 28200 nM on µ-opioid receptor [1], 52100 nM in assay [4], 584 nM in assay [2] and 559 nM in assay [5]. Besides, the “GTP Emax (%) ORL-1” value in assay [3] turned out to be 90%.
As for `O=c1[nH]c2ccccc2n([C@H]2C[C@H]3CCC[C@@H](C2)N3C2CCCCCCC2)c1=O`, the Ki was found to be 529 nM on µ-opioid receptor [1], 20800 nM in assay [4] and 4 nM in assay [2]. Also, the “GTP Emax (%) ORL-1” value in assay [3] amounted to 44%. Further, the EC50 in assay [3] stood at 25 nM.
As to `CC(C)C1CCC(N2CCC(n3c(=O)c(=O)[nH]c4ccccc43)CC2)CC1` (stereo not drawn), at µ-opioid receptor [6], the “GTP Emax (%) Opioid Receptor µ” value is on record as 28.5 ± 2.6%. Besides, the concentration giving a half-maximal response (EC50) on µ-opioid receptor [6] amounted to 3920 nM; at Kappa opioid receptor, 4050 nM; in assay [3], 208 nM. On Kappa opioid receptor, the “GTP Emax (%) Opioid Receptor κ” value worked out at 22.5 ± 2.6%. Also, the Ki at µ-opioid receptor [1] was found to be 825 nM; in assay [4], 9600 nM; in assay [2], 22.8 nM; in assay [5], 880 nM. For the same compound, the “GTP Emax (%) ORL-1” value in assay [3] stood at 68 ± 1.0%.
As to `O=C1CC(=O)N(C2CCN(C3CCCCCCC3)CC2)c2cc(C(=O)O)ccc2N1`, in assay [2], the Ki is > 1e+06 nM.
On to `O=C1CC(=O)N(C2CCN(C3CCCCCCC3)CC2)c2cccc(F)c2N1`, for which the inhibitory constant (Ki) in assay [2] turned out to be 229 nM. Besides, the concentration giving a half-maximal response (EC50) in assay [3] stood at 770 nM.
With `O=c1[nH]c2ccccc2n(C2CCN(C3CCCCCCC3)CC2)c1=O`, at Kappa opioid receptor, the “GTP Emax (%) Opioid Receptor κ” value is listed as 13.7 ± 0.9%. Moreover, the EC50 at Kappa opioid receptor turned out to be 590 nM; in assay [3], 240 nM. Moreover, the inhibitory constant (Ki) is 2200 nM at µ-opioid receptor [1], 2900 nM in assay [4], 65 nM in assay [2] and 167 nM in assay [5]. Also, in assay [3], the “GTP Emax (%) ORL-1” value was found to be 87.3 ± 5.3%.
On to `O=C1CC(=O)N(C2CCN(C3CCCCCCC3)CC2)c2cc(F)ccc2N1`, for which the inhibition constant Ki on µ-opioid receptor [1] turned out to be 3800 nM; in assay [2], 32.6 nM. Further, the EC50 in assay [3] is 153 nM.
For `O=c1[nH]c2ccccc2n([C@@H]2C[C@H]3CCC[C@@H](C2)N3C2CCCCCCC2)c1=O`, the “GTP Emax (%) Opioid Receptor κ” value at Kappa opioid receptor turned out to be 28%. Further, the EC50 came to 4800 nM at Kappa opioid receptor and 96 nM in assay [3]. For the same compound, the inhibition constant (Ki) on µ-opioid receptor [1] turned out to be 769 nM; in assay [4], 21900 nM; in assay [2], 13 nM; in assay [5] it was 170 nM. For the same compound, the “GTP Emax (%) ORL-1” value in assay [3] is on record as 53%.
For the compound `CCn1c(=O)c(=O)n(C2CCN(C3CCCCCCC3)CC2)c2ccccc21`, the inhibition constant (Ki) on µ-opioid receptor [1] was > 1e+06 nM. The inhibitory constant (Ki) in assay [2] is 291 nM. In assay [3], the “GTP Emax (%) ORL-1” value is reported as 27% and the concentration giving a half-maximal response (EC50) turned out to be 450 nM.
Turning to `O=c1[nH]c2ccc(F)cc2n(C2CCN(C3CCCCCCC3)CC2)c1=O`, the EC50 at µ-opioid receptor [6] came to 2500 nM; in assay [3], 11.5 nM. Also, the values for the inhibition constant (Ki) (on µ-opioid receptor [1]; in assay [2]) were 2500 nM and 11.5 nM, respectively. The “GTP Emax (%) ORL-1” value in assay [3] was 74 ± 16%.
As for `COc1ccc2c(n1)N(C1CCN(C3/C=C\CCCCC3)CC1)C(=O)CC(=O)N2` (stereo not drawn), the Ki in assay [2] was found to be 6010 nM.
Same read-out and setting: to `CN1C(=O)CC(=O)N(C2CCN(C3CCCCCCC3)CC2)c2ccccc21` belongs 1530 nM; to `COC(=O)c1ccc2c(c1)N(C1CCN(C3CCCCCCC3)CC1)C(=O)CC(=O)N2`, 39900 nM.
As for `O=c1[nH]c2ccccc2n(C2CCN(C3Cc4cccc5cccc3c45)CC2)c1=O` (stereo not drawn), the “GTP Emax (%) Opioid Receptor µ” value on µ-opioid receptor [6] is 66.0 ± 0.7%. For the same compound, the EC50 was 1640 nM at µ-opioid receptor [6], 7000 nM on Kappa opioid receptor and 31.9 nM in assay [3]. Also, the “GTP Emax (%) Opioid Receptor κ” value on Kappa opioid receptor came to 57.7 ± 4.3%. For the same compound, the inhibition constant Ki at µ-opioid receptor [1] amounted to 1300 nM; in assay [4], 4050 nM; in assay [2], 8.9 nM; in assay [5] it was 439 nM. Besides, the “GTP Emax (%) ORL-1” value in assay [3] turned out to be 132 ± 8.5%.
Take `CCC1(CC)C(=O)Nc2ccccc2N(C2CCN(C3CCC(C(C)C)CC3)CC2)C1=O` (stereo not drawn): the values for the inhibition constant Ki (on µ-opioid receptor [1]; in assay [2]) were 5000 nM and 1550 nM, respectively.
For the compound `O=c1[nH]c2c(F)cccc2n(C2CCN(C3CCCCCCC3)CC2)c1=O`, in assay [2], the inhibition constant (Ki) is 63.2 nM. Further, in assay [3], the “GTP Emax (%) ORL-1” value is on record as 60.3 ± 4.6% and the EC50 was 183 nM.
Turning to `O=C1CC(=O)N(C2CCN(C3CCCCCCC3)CC2)c2cccnc2N1`, the inhibition constant (Ki) came to 12400 nM at µ-opioid receptor [1], 72400 nM in assay [4] and 51 nM in assay [2]. Besides, the EC50 in assay [3] came to 574 nM.
For `O=c1[nH]c2ncccc2n(C2CCN(C3CCCCCCC3)CC2)c1=O`, the Ki on µ-opioid receptor [1] was 17400 nM; in assay [4], 54800 nM; in assay [2], 89 nM; in assay [5], 1320 nM. Moreover, the “GTP Emax (%) ORL-1” value in assay [3] is listed as 38%. Further, in assay [3], the concentration giving a half-maximal response (EC50) worked out at 202 nM.
Turning to `COc1ccc2c(n1)NC(=O)CC(=O)N2C1CCN(C2/C=C\CCCCC2)CC1` (stereo not drawn), the inhibitory constant (Ki) in assay [2] was 16500 nM.
With `N#CCn1c(=O)c(=O)n(C2CCN(C3CCCCCCC3)CC2)c2ccccc21`, the Ki at µ-opioid receptor [1] was 9540 nM; in assay [4], 65700 nM; in assay [2] it was 52 nM; in assay [5], 4230 nM. The “GTP Emax (%) ORL-1” value in assay [3] came out at 46%. For the same compound, in assay [3], the half-maximal effective concentration (EC50) was found to be 141 nM.
Regarding `COC(=O)C1(N2CCC(N3C(=O)CC(=O)Nc4ccc(F)cc43)CC2)CCCCCCC1`, the values for the Ki (at µ-opioid receptor [1]; in assay [2]) were 11700 nM and 68 nM, respectively. For the same compound, in assay [3], the 50% effective concentration (EC50) was determined as 1550 nM.
Regarding `NC(=O)Cn1c(=O)c(=O)n(C2CCN(C3Cc4cccc5cccc3c45)CC2)c2ccccc21` (stereo not drawn), the Ki on µ-opioid receptor [1] was 3300 nM; in assay [4] it was 5450 nM; in assay [2], 453 nM; in assay [5], 6950 nM. In assay [3], the “GTP Emax (%) ORL-1” value turned out to be 152 ± 18%. The concentration for a half-maximal effect (EC50) in assay [3] was 5250 nM.
With `O=C1CC(=O)N([C@H]2C[C@H]3CCC[C@@H](C2)N3C2CCCCCCC2)c2ccccc2N1`, the inhibitory constant (Ki) on µ-opioid receptor [1] stood at 11900 nM. Moreover, the Ki in assay [2] amounted to 173 nM. In addition, in assay [3], the “GTP Emax (%) ORL-1” value was determined as 22% and the EC50 worked out at 168 nM.
